Values quoted from earlier work, collected in patent US11857566B2, “Sulfonated polystyrene derivative for use in the treatment and/or prophylaxis of cat flu” (UNIWERSYTET JAGIELLONSKI, priority 2018, dated 2024).

## NC(=O)c1ncn([C@@H]2O[C@H](CO)[C@@H](O)[C@H]2O)n1 [ribavirin]
  toxicity after oral administration in cats: too toxic
